Test results published in publication PMC6148290, “Endogenous metabolites of vitamin E limit inflammation by targeting 5-lipoxygenase” (Nature Communications, 2018).

The chains behind the UniProt entries cited, without tags or fusion partners.
UniProt P18054, whole entry: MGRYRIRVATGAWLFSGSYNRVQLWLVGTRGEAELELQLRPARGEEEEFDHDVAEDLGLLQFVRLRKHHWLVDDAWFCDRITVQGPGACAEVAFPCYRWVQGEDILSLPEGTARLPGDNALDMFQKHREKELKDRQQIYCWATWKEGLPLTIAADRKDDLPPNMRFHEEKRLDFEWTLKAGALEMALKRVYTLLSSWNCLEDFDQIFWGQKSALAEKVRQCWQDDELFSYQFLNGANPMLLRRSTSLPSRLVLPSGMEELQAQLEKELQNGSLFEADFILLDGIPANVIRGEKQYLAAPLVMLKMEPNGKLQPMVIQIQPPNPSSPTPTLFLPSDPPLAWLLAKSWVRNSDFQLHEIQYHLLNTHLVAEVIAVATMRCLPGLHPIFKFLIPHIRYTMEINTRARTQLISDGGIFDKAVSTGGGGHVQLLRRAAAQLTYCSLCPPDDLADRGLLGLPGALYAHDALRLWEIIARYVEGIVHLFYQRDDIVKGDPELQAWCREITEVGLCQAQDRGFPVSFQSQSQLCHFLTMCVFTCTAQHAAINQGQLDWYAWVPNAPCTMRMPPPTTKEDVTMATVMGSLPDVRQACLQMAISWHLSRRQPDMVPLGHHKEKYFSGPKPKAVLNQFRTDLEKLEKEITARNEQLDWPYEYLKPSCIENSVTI

Experiments:
[1] = γ-TE orally given at pharmacological doses; ref Jiang et al., 2007; cited from earlier work
12-LO = 12-LO (Homo sapiens, UniProt P18054); experiment: 12-LO product formation in A23187/AA-activated PMNL; conditions: at 3 µM; mean ± s.e.m., n = 3; n.i. no inhibition
[2] = system: peripheral blood mononuclear cells; experiment: Cell viability of PBMC (MTT assay); assay type: cell-based, human; conditions: 24 h
15-LO = 15-LO product formation in A23187/AA-activated PMNL; conditions: at 3 µM; mean ± s.e.m., n = 3; n.i. no inhibition

Row | Structure (SMILES) | level in rat liver [1] [nM] | level in rat plasma [1] | 12-LO product formation/PMNL, residual activity (12-LO) | Cell viability/peripheral blood mononuclear cells, residual viability ([2]; at 1 and 10 µM (one entry for both), n.i. no inhibition) | 15-LO product formation/PMNL, residual activity (15-LO) | Cell viability/peripheral blood mononuclear cells, residual viability ([2]; at 1 µM) | Cell viability/peripheral blood mononuclear cells, residual viability ([2]; at 10 µM)
1 | C/C(=C\CC/C(C)=C/CC[C@]1(C)CCc2cc(O)c(C)c(C)c2O1)CC/C=C(\C)C(=O)O | ≤ 730 | up to 140 nM | n.i. | n.i. | 169.2 ± 4.5 % of control |  | 
2 | C/C(=C/CC/C(C)=C/CC/C(C)=C/CC[C@]1(C)CCc2cc(O)cc(C)c2O1)CO |  |  |  |  | 174.6 ± 6.9 % of control | n.i. | 73.5 ± 14.4 % of control
